Here are results for one compound from ChEMBL document CHEMBL5107935, “Modulating β-arrestin 2 recruitment at the δ- and μ-opioid receptors using peptidomimetic ligands” (RSC Med Chem, 2021).

Amino acid sequences for entries named in this document (tags omitted).
UniProt P41143, whole entry: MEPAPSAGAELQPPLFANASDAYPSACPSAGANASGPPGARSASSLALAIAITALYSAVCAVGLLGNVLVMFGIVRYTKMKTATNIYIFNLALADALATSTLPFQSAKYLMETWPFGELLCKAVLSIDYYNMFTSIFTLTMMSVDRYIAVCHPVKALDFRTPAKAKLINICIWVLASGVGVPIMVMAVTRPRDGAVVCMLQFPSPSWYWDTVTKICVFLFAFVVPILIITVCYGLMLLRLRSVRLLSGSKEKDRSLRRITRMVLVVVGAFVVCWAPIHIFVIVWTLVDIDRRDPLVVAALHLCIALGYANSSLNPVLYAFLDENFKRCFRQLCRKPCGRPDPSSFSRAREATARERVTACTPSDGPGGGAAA
UniProt P35372, whole entry: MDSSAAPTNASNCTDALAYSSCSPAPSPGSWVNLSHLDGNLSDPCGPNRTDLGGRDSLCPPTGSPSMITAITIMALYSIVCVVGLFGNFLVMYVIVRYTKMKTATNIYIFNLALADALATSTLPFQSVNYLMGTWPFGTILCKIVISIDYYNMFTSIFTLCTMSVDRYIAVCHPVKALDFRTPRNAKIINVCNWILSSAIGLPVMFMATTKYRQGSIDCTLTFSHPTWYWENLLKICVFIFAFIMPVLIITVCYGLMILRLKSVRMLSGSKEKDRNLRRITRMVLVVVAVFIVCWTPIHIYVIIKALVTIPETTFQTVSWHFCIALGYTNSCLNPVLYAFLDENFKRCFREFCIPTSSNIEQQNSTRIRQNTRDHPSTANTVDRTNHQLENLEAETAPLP

Assay [1] deals with T1, Delta-type opioid receptor (Homo sapiens, UniProt P41143). Put plainly: Displacement of [3H]DPDPE from human delta opioid receptor expressed in CHO cell membrane measured after 90 mins by liquid scintillation counting method. Format: cell membranes. In a few lines:
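Membranes (7 μg protein) were added and incubated 90 min at room temperature in 50 mM Tris HCl, 10 mM MgCl2, 1 mM EDTA, pH 7.4. Samples were filtered on GF-B, washed 4× with ice-cold 50 mM Tris HCl, and counted by scintillation. Points were run in duplicate.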
On the technique in general: Displacement assays read how much labelled ligand stays bound in the presence of the test substance.

Assay [2] has as its target T2, Mu-type opioid receptor (Homo sapiens, UniProt P35372). Put plainly: Displacement of [3H]DAMGO from human mu opioid receptor expressed in CHO cell membrane incubated for 90 mins by liquid scintillation counting method. The class given is cell membranes.
Assay [3] concerns the target T1, Delta-type opioid receptor. Put plainly: Agonist activity at human delta opioid receptor expressed in CHO cells co-expressing beta-arrestin2 assessed as beta-arrestin2 recruitment measured after 90 mins by PathHunter assay. Format: functional, cell-based. The gist of the method: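 PathHunter CHO cells expressing human δOR and β-arrestin 2 were plated at 2,500 cells/well one day before use. Drug was applied for 90 min at 37 °C/5% CO2, followed by PathHunter assay buffer for 60 min at room temperature. Luminescence was read. Points were run in duplicate, and pEC50 was obtained by nonlinear regression; values are means ± SEM.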

Assay [4] has as its target T2, Mu-type opioid receptor. Briefly: Agonist activity at human mu opioid receptor expressed in CHO cells co-expressing beta-arrestin2 assessed as beta-arrestin2 recruitment measured after 90 mins by PathHunter assay. Format: functional, cell-based. (In general: Activated receptors often draw arrestin, which recruitment assays turn into a signal.)

Take `CC(C)C[C@H](NC(=O)[C@H](Cc1ccccc1)NC(=O)CNC(=O)C/C=C(\F)[C@@H](N)Cc1ccc(O)cc1)C(=O)O`: the inhibition constant Ki in assay [1] stood at 25.6 nM; on Mu-type opioid receptor [2], 42.7 nM. The EC50 stood at 764 nM in assay [3] and 32000 nM on Mu-type opioid receptor [4].

As a reminder, the Ki is the equilibrium dissociation constant of an inhibitor or competing ligand from its target. Read a high Ki as lower affinity. Usually EC50 stands for the concentration that produces a half-maximal response.
